Earlier results on 1 substance are cited in US20230158100A1, “TREATMENT OF PANX1 ASSOCIATES DISEASES” (NURITAS LIMITED, priority 2020, published 2023).

For this data set the following is noted: Werle and Bernkop-Schnürch 2006; cited from earlier work.

For the substance “PEG(2, 40 K) conjugate of INF-alpha-2b: A PEG(2, 40 K) conjugate of INF-alpha-2b”, the “prolonged plasma half life time compared to the native protein” value was 330 fold.
